The results in this text go back to ChEMBL document CHEMBL1150386 (J Med Chem, 2008).

Structures are written as SMILES.

The target in assay [1] is T1, Acetylcholinesterase (Homo sapiens, UniProt P22303). Put plainly: Inhibition of human recombinant AChE.
Assay [2] has as its target T1, Acetylcholinesterase.

As for `CC(=O)N(CCCCNc1c2c(nc3ccccc13)CCCC2)CCCSc1c2c(nc3ccccc13)CCCC2`, the Ki in assay [1] was determined as 20.9 nM; in assay [2] it was 27.9 nM.

As usually defined, the Ki is a measure of affinity in units of concentration, obtained from inhibition or displacement.
